The text below walks through data of US20090263341A1, “SOFT ANTICHOLINERGIC ESTERS” (priority 2005, published 2009).

Chains of the proteins cited; added tags and fusions are not shown. Lines headed by an entry give the natural chain unless they say otherwise; changes in a name come on top.
UniProt P11229: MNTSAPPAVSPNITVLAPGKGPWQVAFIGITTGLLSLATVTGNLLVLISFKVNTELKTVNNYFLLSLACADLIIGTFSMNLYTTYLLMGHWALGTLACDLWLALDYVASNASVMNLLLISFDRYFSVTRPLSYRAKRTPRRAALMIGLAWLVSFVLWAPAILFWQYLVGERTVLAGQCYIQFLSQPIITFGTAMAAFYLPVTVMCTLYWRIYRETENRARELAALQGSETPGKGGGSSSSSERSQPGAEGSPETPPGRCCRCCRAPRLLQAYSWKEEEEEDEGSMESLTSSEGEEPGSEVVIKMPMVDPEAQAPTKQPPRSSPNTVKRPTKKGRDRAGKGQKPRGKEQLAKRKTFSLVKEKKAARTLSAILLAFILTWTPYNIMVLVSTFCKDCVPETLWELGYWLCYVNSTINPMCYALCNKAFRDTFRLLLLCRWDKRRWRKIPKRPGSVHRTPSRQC
UniProt P08173, whole entry: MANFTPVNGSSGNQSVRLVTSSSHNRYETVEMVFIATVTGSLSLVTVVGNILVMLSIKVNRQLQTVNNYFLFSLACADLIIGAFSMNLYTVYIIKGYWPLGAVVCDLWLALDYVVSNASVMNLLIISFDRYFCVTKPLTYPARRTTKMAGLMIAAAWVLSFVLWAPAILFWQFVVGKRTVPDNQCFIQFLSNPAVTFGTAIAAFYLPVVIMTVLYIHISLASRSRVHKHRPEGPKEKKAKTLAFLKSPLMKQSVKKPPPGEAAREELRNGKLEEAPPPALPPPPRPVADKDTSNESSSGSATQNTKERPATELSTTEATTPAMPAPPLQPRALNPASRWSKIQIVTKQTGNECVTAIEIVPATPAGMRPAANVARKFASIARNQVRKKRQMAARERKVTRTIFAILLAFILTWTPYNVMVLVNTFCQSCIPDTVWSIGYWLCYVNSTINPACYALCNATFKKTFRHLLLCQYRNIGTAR

In general, Ki refers to a measure of affinity in units of concentration, obtained from inhibition or displacement. A high value points to weaker binding.

In test [1] the target is cloned human muscarinic receptor subtype M1 (Homo sapiens, UniProt P11229). The test is described as follows: Receptor binding, [3H]NMS, cloned human muscarinic receptor M1.
The target of test [2] is T1, cloned human muscarinic receptor subtype M4 (Homo sapiens, UniProt P08173).
T1 construct: purchased Applied Cell Science Inc. (Rockville, Md.)
The test is described as follows: Receptor binding, [3H]NMS, cloned human muscarinic receptor M4.

Consider `C[N+]1(C)CCC(OC(=O)C(O)(c2ccccc2)C2CCCC2)C1.[Br-]` (mixture of isomers) [glycopyrrolate, 3-(2-cyclopentyl-2-phenyl-2-hydroxyacetoxy)-1,1-dimethylpyrrolidinium bromide, reference compound], for which the inhibitory constant (Ki) was 0.174 nM in test [1] and 0.126 nM in test [2].
